# Values quoted from earlier work, collected in patent US6462193B1, “Hydroxyazepanes as inhibitors of glycosidase and HIV protease” (The Scripps Research Institute, priority 1999, dated 2002).
# Biological target: T1, α-mannosidase (Canavalia ensiformis, UniProt C0HJB3)
# T1 sequence (C0HJB3 1-981): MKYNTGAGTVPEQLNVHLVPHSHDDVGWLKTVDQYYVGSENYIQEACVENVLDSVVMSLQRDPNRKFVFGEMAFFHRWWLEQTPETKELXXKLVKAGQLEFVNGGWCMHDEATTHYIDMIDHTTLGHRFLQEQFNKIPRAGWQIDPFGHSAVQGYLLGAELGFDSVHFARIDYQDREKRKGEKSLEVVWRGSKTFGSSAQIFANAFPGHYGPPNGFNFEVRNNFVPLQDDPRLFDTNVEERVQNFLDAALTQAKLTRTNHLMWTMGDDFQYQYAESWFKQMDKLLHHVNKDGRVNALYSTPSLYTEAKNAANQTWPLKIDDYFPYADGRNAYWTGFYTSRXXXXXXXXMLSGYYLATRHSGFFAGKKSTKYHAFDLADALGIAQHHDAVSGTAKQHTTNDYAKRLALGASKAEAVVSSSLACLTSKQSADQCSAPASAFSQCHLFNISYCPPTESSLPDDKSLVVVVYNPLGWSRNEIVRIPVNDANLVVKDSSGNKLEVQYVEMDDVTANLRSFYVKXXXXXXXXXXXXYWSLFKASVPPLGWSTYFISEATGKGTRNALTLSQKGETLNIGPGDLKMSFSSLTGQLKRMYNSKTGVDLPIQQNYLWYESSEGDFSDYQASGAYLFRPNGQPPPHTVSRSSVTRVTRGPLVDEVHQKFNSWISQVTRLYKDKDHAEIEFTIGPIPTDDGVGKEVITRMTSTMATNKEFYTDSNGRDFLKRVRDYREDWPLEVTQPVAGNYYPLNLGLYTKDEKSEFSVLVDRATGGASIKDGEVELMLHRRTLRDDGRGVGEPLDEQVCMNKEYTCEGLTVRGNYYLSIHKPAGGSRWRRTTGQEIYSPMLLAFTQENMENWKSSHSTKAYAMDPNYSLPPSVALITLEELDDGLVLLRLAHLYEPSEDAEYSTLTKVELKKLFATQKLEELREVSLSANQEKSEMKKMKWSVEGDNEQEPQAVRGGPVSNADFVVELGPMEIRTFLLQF
# Details: literature value (Tulsiani et al. 1982); read-out: Ki as inhibitor of α-mannosidase; cited from earlier work
compound,measurement,value
OC[C@H]1NC[C@@H](O)[C@@H](O)[C@@H]1O [1-deoxymannojirimycin],Ki,150 µM
